Amino acid sequences for entries named in this document (tags omitted).
UniProt Q99714, whole entry: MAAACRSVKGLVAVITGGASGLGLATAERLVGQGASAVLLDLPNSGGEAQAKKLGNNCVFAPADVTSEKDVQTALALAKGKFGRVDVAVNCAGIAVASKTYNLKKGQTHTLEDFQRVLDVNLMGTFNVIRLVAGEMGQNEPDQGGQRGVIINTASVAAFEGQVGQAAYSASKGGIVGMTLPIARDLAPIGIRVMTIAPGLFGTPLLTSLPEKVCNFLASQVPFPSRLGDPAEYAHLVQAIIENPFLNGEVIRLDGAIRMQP

The list shows a part of the results, in another mix than the full data. Results filed as inconclusive are left out. Entries that show only a call come without a potency. The source made the active and inactive calls. The call rests on the fitted dose curve; in most records, active means well fitted inhibition curve with a large enough effect; inconclusive means small, poorly fitted or top-dose-only effect; inactive means no such curve, though single readings can be large or run the other way.
Each compound was assayed against 3-hydroxyacyl-CoA dehydrogenase type-2 (Homo sapiens) (UniProt Q99714) (assay: qHTS Assay for Inhibitors of HADH2 (Hydroxyacyl-Coenzyme A Dehydrogenase, Type II)). Conditions: recombinant HADH2, NADH fluorescence, beta-hydroxybutyryl-CoA; series mostly up to 57.1 µM.
`CCOP(C)(=S)SCC(=O)NC(C)C(=O)O` (stereo unspecified) was tested, and the activity change, negative = inhibition was “inactive”. `CP(=O)(NC(=O)Nc1ccccc1)Oc1ccccc1` (stereo unspecified) was tested, and the activity change, negative = inhibition was “inactive”. In the case of `N1=C(c2nnc(-c3nn[nH]n3)nn2)NNN1`, the activity change, negative = inhibition was inactive: 7.27% [at 11.4 µM]. In the case of `Cc1ccc(NP(C)(=O)Oc2ccccc2)c(C)c1` (stereo unspecified), the activity change, negative = inhibition was “inactive”. For `COc1ccccc1OP(C)(=O)Nc1ccc(C)cc1` (stereo unspecified), the activity change, negative = inhibition was “inactive”. In the case of `O=[N+]([O-])[O-].[NH4+]`, the activity change, negative = inhibition was “inactive”. With `Cc1ccc(C)c(NP(C)(=O)Oc2ccccc2)c1` (stereo unspecified) the activity change, negative = inhibition was “inactive”. `Cc1ccc([N+](=O)[O-])cc1[N+](=O)[O-]` was tested, and the activity change, negative = inhibition was “inactive”. For `O=[N+]([O-])c1cccc([N+](=O)[O-])c1`, the activity change, negative = inhibition was “inactive”. In the case of `Cc1nc2ccc3ccccc3c2s1.O=[N+]([O-])c1cc([N+](=O)[O-])c(O)c([N+](=O)[O-])c1`, the activity change, negative = inhibition was “inactive”. With `CP(=O)(Nc1ccc2c(c1)OCCO2)Oc1ccccc1` (stereo unspecified) the activity change, negative = inhibition was “inactive”. `[NH4+].[O-][Cl+3]([O-])([O-])[O-]` was tested, and the activity change, negative = inhibition was “inactive”. In the case of `Cc1ccccc1NP(C)(=O)Nc1ccccc1C`, the activity change, negative = inhibition was “inactive”. `CCOP(=O)(CC)OCC` was tested, and the activity change, negative = inhibition was “inactive”. In the case of `CCOP(C)(=S)SCC(=O)NC(C)(CC)C(=O)O` (stereo unspecified), the activity change, negative = inhibition was “inactive”. `Cc1c([N+](=O)[O-])cccc1[N+](=O)[O-]` was tested, and the activity change, negative = inhibition was “inactive”. For `Cc1ccc([N+](=O)[O-])c([N+](=O)[O-])c1`, the activity change, negative = inhibition was “inactive”. `CN(C)CCOC(=O)C(O)(c1ccccc1)C1CCCCC1` (stereo unspecified) was tested, and the activity change, negative = inhibition was “inactive”. For `Cc1cccc([N+](=O)[O-])c1[N+](=O)[O-]`, the activity change, negative = inhibition was “inactive”. `CCC(C)(OO)OOC(C)(CC)OO` (stereo unspecified) was tested, and the activity change, negative = inhibition was “inactive”. With `CP(=O)(Nc1ccccc1F)Oc1ccccc1` (stereo unspecified) the activity change, negative = inhibition was “inactive”. With `CP(=O)(Nc1ccccn1)Oc1ccccc1` (stereo unspecified) the activity change, negative = inhibition was “inactive”. With `COc1ccccc1OP(C)(=O)Nc1ccc(C)c(C)c1` (stereo unspecified) the activity change, negative = inhibition was “inactive”. In the case of `N#[O+].[C-]#N.[C-]#N.[C-]#N.[C-]#N.[C-]#N.[Fe+2].[Na+].[Na+]`, the Potency was active: 10 µM. `CP(=O)(Oc1ccccc1)N1CCOC1=O` (stereo unspecified) was tested, and the activity change, negative = inhibition was “inactive”. For `COc1ccccc1OP(C)(=O)Nc1c(C)n(C)n(-c2ccccc2)c1=O` (stereo unspecified), the activity change, negative = inhibition was “inactive”.

— PubChem BioAssay AID886 (National Center for Advancing Translational Sciences (NCATS), 2007)
Further: nearly all actives have a fitted effect of over 60% in size.
Potency means the concentration at half of the fitted maximal effect.
